Results reported in patent US20250361280A1 (Protagonist Therapeutics, Inc., priority 2022, published 2025).

Legend:
[1] = target: T1, ferroportin (Homo sapiens, UniProt Q9NP59); test: T47D internalization assay in presence of mouse serum albumin; format: cell-based; set-up: a human breast carcinoma adherent cell line which endogenously expresses ferroportin; host or cells: T47D; conditions: T47D cells, 0.5% mouse serum albumin, 1 hr incubation
T1 sequence (Q9NP59 1-571): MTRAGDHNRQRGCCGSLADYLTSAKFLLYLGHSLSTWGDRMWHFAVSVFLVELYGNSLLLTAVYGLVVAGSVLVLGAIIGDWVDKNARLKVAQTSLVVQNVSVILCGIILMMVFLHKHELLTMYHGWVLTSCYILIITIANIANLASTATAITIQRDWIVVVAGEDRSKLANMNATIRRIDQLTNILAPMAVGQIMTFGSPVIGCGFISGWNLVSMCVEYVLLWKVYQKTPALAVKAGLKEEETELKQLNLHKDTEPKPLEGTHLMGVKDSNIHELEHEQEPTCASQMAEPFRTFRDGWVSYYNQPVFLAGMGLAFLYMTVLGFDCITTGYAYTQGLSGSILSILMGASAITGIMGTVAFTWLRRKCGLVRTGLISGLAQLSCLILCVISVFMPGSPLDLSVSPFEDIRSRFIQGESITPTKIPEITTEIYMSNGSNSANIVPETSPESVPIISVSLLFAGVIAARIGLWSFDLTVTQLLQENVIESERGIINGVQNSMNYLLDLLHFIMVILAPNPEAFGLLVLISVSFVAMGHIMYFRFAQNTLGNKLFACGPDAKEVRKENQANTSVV
Method: The potency of the peptides disclosed in causing ferroportin internalization was evaluated in a T47D cell-based assay. […] In this internalization assay, the potency of the test peptides was evaluated in presence of serum albumin which is the main protein component in the blood. T47D cells were maintained in RPMI media (containing required amount of fetal bovine serum) and regularly sub-cultured. In preparation for the assay, the cells were seeded in 96-well plates at a density of 80-100 k cells per well in 100 ul volume and allowed to rest overnight. On the next day, test peptides were first prepared in dilution series (10-point series, starting concentration of ˜5 μM, typically 3-4×fold dilution steps), all with 0.5% mouse serum albumin (MSA purified from mouse serum; Sigma, A3139). The test peptide dilution series were allowed to incubate at room temperature for 30 min. Then the media was aspirated from the 96-well cell plate and test peptide dilution series were added. After 1 hr incubation, the media with test peptides was aspirated out and AF647-conjugated detection peptide was added at fixed concentration of 200 nM. The AF647-conjugated detection peptide was previously verified to bind to ferroportin and cause its internalization. The cells were washed again after a 2 hr incubation in preparation for flow cytometry analysis. The Median Fluorescence Intensity (MFI) of the AF647-positive population was measured (after removing dead cells and non-singlets from the analysis). The MFI values were used to generate a dose-response curve and obtain IC50 potencies for the test peptides. The IC50 potencies were calculated by using 4-parameter non-linear fitting function in Graphpad Prism and the results are provided in Table 1C.

[2] = target: T1, ferroportin; test: FPN internalization assay (FPN activity assay), loss of ferroportin-GFP fluorescence; format: cell-based
[3] = Table 1C, read-out: IC50: T47D MSA
[4] = Table 1C, HEK293 cells stably expressing ferroportin-GFP, compound at least 18 hours, read-out: IC50: FPN

CCCCCCCCCCCCCCCC(=O)NCC[N+](C)(C)CC(=O)NCCCCCC(=O)NCCCC[C@H](NC(=O)[C@@H]1C[C@@H]2CN1C(=O)[C@H](C(c1ccccc1)c1ccccc1)NC(=O)[C@H](Cc1c[nH]cn1)NC(=O)[C@@H](NC(=O)[C@H](CCC(=O)O)NC(=O)CC(C)C)CSS2)C(=O)NCCCCc1ccccc1 [compound 22] gave an IC50 [1, 3] of 10 to 100 nM and an IC50 [2, 4] of 1 to 30 nM.

CCCCCCCCCCCCCCCC(=O)N[C@@H](CN)C(=O)NCCOCCOCC(=O)NCCOCCOCC(=O)NCCCC[C@H](NC(=O)[C@@H]1C[C@@H]2CN1C(=O)[C@H](C(c1ccccc1)c1ccccc1)NC(=O)[C@H](Cc1cnc[nH]1)NC(=O)[C@@H]1C[C@@H](CN1C(=O)[C@H](CCC(=O)O)NC(=O)CC(C)C)SS2)C(=O)NCCCCc1ccccc1 [compound 23] gave an IC50 [1, 3] of 0.1 to 10 nM and an IC50 [2, 4] of 1 to 30 nM.

In the case of CCCCCCCCCCCCCCCC(=O)NCC[N+](C)(C)CC(=O)NCCCC[C@H](NC(=O)[C@@H]1CCCN1C(=O)[C@@H](NC(=O)[C@H](Cc1c[nH]cn1)NC(=O)[C@@H](NC(=O)[C@H](CCC(=O)O)NC(=O)CC(C)C)[C@@H](C)O)C(c1ccccc1)c1ccccc1)C(=O)NCC(c1ccccc1)c1ccccc1 [compound 24], the IC50 [1, 3] is reported as 10 to 100 nM and the IC50 [2, 4] is reported as 1 to 30 nM.

CCCCCCCCCCCCCCCC(=O)NCC[N+](C)(C)CC(=O)NCCCCCC(=O)NCCCC[C@H](NC(=O)[C@@H]1CCCN1C(=O)[C@@H](NC(=O)[C@H](Cc1c[nH]cn1)NC(=O)[C@@H](NC(=O)[C@H](CCC(=O)O)NC(=O)CC(C)C)[C@@H](C)O)C(c1ccccc1)c1ccccc1)C(=O)NCC(c1ccccc1)c1ccccc1 [compound 25] showed an IC50 [1, 3] of 10 to 100 nM and an IC50 [2, 4] of 1 to 30 nM.

For CCCCCCCCCCCCCCCC(=O)NCC[N+](C)(C)CC(=O)NCCOCCOCC(=O)NCCOCCOCC(=O)NCCCC[C@H](NC(=O)[C@@H]1CCCN1C(=O)[C@@H](NC(=O)[C@H](Cc1c[nH]cn1)NC(=O)[C@@H](NC(=O)[C@H](CCC(=O)O)NC(=O)CC(C)C)[C@@H](C)O)C(c1ccccc1)c1ccccc1)C(=O)NCC(c1ccccc1)c1ccccc1 [compound 26], the IC50 [1, 3] was 0.1 to 10 nM and the IC50 [2, 4] was 1 to 30 nM.

Work on CCCCCCCCCCCCCCCC(=O)N[C@@H](CN)C(=O)NCCOCCOCC(=O)NCCOCCOCC(=O)NCCCC[C@H](NC(=O)[C@@H]1CCCN1C(=O)[C@@H](NC(=O)[C@H](Cc1c[nH]cn1)NC(=O)[C@@H](NC(=O)[C@H](CCC(=O)O)NC(=O)CC(C)C)[C@@H](C)O)C(c1ccccc1)c1ccccc1)C(=O)NCC(c1ccccc1)c1ccccc1 [compound 27] yielded an IC50 [1, 3] of 0.1 to 10 nM and an IC50 [2, 4] of 1 to 30 nM.

Work on CC(C)CC(=O)N[C@@H](CCC(=O)O)C(=O)N[C@H](C(=O)N[C@@H](Cc1c[nH]cn1)C(=O)N[C@H](C(=O)N1CCC[C@H]1C(=O)N[C@H](C(=O)N(C)[C@@H](CCCCNC(=O)CCCCCNC(=O)C[N+](C)(C)CCNC(=O)CCCCCCCCCCCCCCCCC(=O)O)C(=O)N[C@@H](Cc1ccc(-c2ccccc2)cc1)C(=O)N[C@H](CCCCN)C(N)=O)C1CCCCC1)C(c1ccccc1)c1ccccc1)[C@@H](C)O [compound 28] yielded an IC50 [1, 3] of 10 to 100 nM and an IC50 [2, 4] of 1 to 30 nM.

In the case of CC(C)CC(=O)N[C@@H](CCC(=O)O)C(=O)N[C@H](C(=O)N[C@@H](Cc1c[nH]cn1)C(=O)N[C@H](C(=O)N1CCC[C@H]1C(=O)Nc1ccc(C(=O)N(C)[C@@H](CCCCNC(=O)CCCCCNC(=O)C[N+](C)(C)CCNC(=O)CCCCCCCCCCCCCCCCC(=O)O)C(=O)N[C@@H](Cc2ccc(-c3ccccc3)cc2)C(=O)N[C@H](CCCCN)C(N)=O)cc1)C(c1ccccc1)c1ccccc1)[C@@H](C)O [compound 29], the IC50 ([1]; IC50: T47D MSA, Table 1C) is reported as 10 to 100 nM and the IC50 [2] is reported as 30 to 100 nM.

For CCCCCCCCCCCCCCCC(=O)NCCCCCC(=O)NCCCC[C@@H]1NC(=O)[C@@H]2CCCN2C(=O)[C@H](C(c2ccccc2)c2ccccc2)NC(=O)[C@H](Cc2c[nH]cn2)NC(=O)[C@H]([C@@H](C)O)NC(=O)[C@@H](NC(=O)CC(C)C)CCC(=O)NCCOc2ccc(cc2)C[C@@H](C(N)=O)NC1=O [compound 30], the IC50 [1, 3] was 10 to 100 nM and the IC50 [2, 4] was 30 to 100 nM.

Work on CCCCCCCCCCCCCCCC(=O)NCCCCCC(=O)NCCCC[C@H](NC(=O)[C@@H]1CCCN1C(=O)[C@@H](NC(=O)[C@H](Cc1c[nH]cn1)NC(=O)[C@@H](NC(=O)[C@H](CCC(=O)O)NC(=O)CC(C)C)[C@@H](C)O)C(c1ccccc1)c1ccccc1)C(=O)N[C@@H](Cc1ccc(OCCN)cc1)C(N)=O [compound 31] yielded an IC50 [1, 3] of 10 to 100 nM and an IC50 [2, 4] of 100 to 500 nM.

CCCCCCCCCCCCCCCC(=O)NCCCCCC(=O)NCCOc1ccc(C[C@H](NC(=O)[C@@H]2CCCN2C(=O)[C@@H](NC(=O)[C@H](Cc2c[nH]cn2)NC(=O)[C@@H](NC(=O)[C@H](CCC(=O)O)NC(=O)CC(C)C)[C@@H](C)O)C(c2ccccc2)c2ccccc2)C(N)=O)cc1 [compound 35] showed an IC50 [1, 3] of 100 to 500 nM and an IC50 [2, 4] of 100 to 500 nM.

CCCCCCCCCCCCCCCC(=O)NCCCCCC(=O)NCCCC[C@H](NC(=O)[C@@H]1CCCN1C(=O)[C@@H](NC(=O)[C@H](Cc1c[nH]cn1)NC(=O)[C@@H](NC(=O)[C@H](CCC(=O)O)NC(=O)CC(C)C)[C@@H](C)O)C(c1ccccc1)c1ccccc1)C(=O)N[C@H](C(N)=O)C(c1ccccc1)c1ccccc1 [compound 36] showed an IC50 [1, 3] of 10 to 100 nM and an IC50 [2, 4] of 1 to 30 nM.

For CC(C)CC(=O)N[C@@H](CCC(=O)O)C(=O)N[C@H](C(=O)N[C@@H](Cc1c[nH]cn1)C(=O)N[C@H](C(=O)N1CCC[C@H]1C(=O)N[C@H](C(=O)N(C)[C@@H](CCCCNC(=O)COCCOCCNC(=O)COCCOCCNC(=O)[C@H](CN)NC(=O)CCCCCCCCCCCCCCCCC(=O)O)C(=O)N[C@@H](Cc1ccc(-c2ccccc2)cc1)C(=O)N[C@H](CCCCN)C(N)=O)C1CCCCC1)C(c1ccccc1)c1ccccc1)[C@@H](C)O [compound 37], the IC50 [1, 3] was 10 to 100 nM and the IC50 [2, 4] was 1 to 30 nM.

CC(C)CC(=O)N[C@@H](CCC(=O)O)C(=O)N[C@H](C(=O)N[C@@H](Cc1c[nH]cn1)C(=O)N[C@H](C(=O)N1CCC[C@H]1C(=O)Nc1ccc(C(=O)N(C)[C@@H](CCCCNC(=O)COCCOCCNC(=O)COCCOCCNC(=O)[C@H](CN)NC(=O)CCCCCCCCCCCCCCCCC(=O)O)C(=O)N[C@@H](Cc2ccc(-c3ccccc3)cc2)C(=O)N[C@H](CCCCN)C(N)=O)cc1)C(c1ccccc1)c1ccccc1)[C@@H](C)O [compound 38] gave an IC50 ([1]; IC50: T47D MSA, Table 1C) of 10 to 100 nM and an IC50 [2] of 1 to 30 nM.

For COC(=O)CC[C@H](NC(=O)CC(C)C)C(=O)N[C@H](C(=O)N[C@@H](Cc1c[nH]cn1)C(=O)N[C@H](C(=O)N1CCC[C@H]1C(=O)N(C)[C@@H](CCCCNC(=O)CCCCCNC(=O)C[N+](C)(C)CCNC(=O)CCCCCCCCCCCCCCCCC(=O)O)C(=O)N[C@H](C(=O)N[C@H](CCCCN)C(N)=O)C(c1ccccc1)c1ccccc1)C(c1ccccc1)c1ccccc1)[C@@H](C)O [compound 39], the IC50 [1, 3] was greater than 500 nM and the IC50 [2, 4] was greater than 500 nM.

In the case of COC(=O)CC[C@H](NC(=O)CC(C)C)C(=O)N[C@H](C(=O)N[C@@H](Cc1c[nH]cn1)C(=O)N[C@H](C(=O)N1CCC[C@H]1C(=O)N1CCC[C@H]1C(=O)NCC(=O)N(C)[C@@H](CCCCNC(=O)COCCOCCNC(=O)COCCOCCNC(=O)[C@H](CN)NC(=O)CCCCCCCCCCCCCCCCC(=O)O)C(=O)N[C@H](CC(=O)N[C@H](CCCCN)C(N)=O)Cc1ccccc1)C(c1ccccc1)c1ccccc1)[C@@H](C)O [compound 46], the IC50 [1, 3] is reported as greater than 500 nM and the IC50 [2, 4] is reported as 1 to 30 nM.

In the case of CC(C)CC(=O)N[C@@H](CCC(=O)O)C(=O)N[C@H](C(=O)N[C@@H](Cc1c[nH]cn1)C(=O)N[C@H](C(=O)N1CCC[C@H]1C(=O)NC1C2CC3CC1CC(C(=O)N[C@@H](CCCCNC(=O)COCCOCCNC(=O)COCCOCCNC(=O)[C@H](CN)NC(=O)CCCCCCCCCCCCCCCCC(=O)O)C(=O)N[C@H](CC(=O)N[C@H](CCCCN)C(N)=O)Cc1ccccc1)(C3)C2)C(c1ccccc1)c1ccccc1)[C@@H](C)O (stereo partly drawn) [compound 48], the IC50 ([1]; IC50: T47D MSA, Table 1C) is reported as 10 to 100 nM and the IC50 [2] is reported as 30 to 100 nM.

CC(C)CC(=O)N[C@H]1CCC(=O)N(Cc2ccccc2)CCNC(=O)[C@H](CCCCNC(=O)CCOCCOCCOCCOCCNC(=O)CCCc2ccc(I)cc2)NC(=O)[C@@H]2CSSC[C@H](NC1=O)C(=O)N[C@@H](Cc1c[nH]cn1)C(=O)N[C@@H](C(c1ccccc1)c1ccccc1)C(=O)N2 [compound 61] showed an IC50 ([1]; Table 1D, read-out: IC50: T47D MSA) greater than 500 nM and an IC50 ([2]; Table 1D, HEK293 cells stably expressing ferroportin-GFP, compound at least 18 hours, read-out: IC50: FPN) of 100 to 500 nM.
